Molecular target: human TGR5 (Homo sapiens, UniProt Q8TDU6)
Assay: cAMP production assay in HEK293 cells stably expressing TGR5 (LANCE cAMP, TR-FRET)
Conditions: read-out: cAMP Production in 293-TGR5 Cells, stimulated with test compounds for 30 minutes, 1 mM IBMX, tested form: HCl
Description: HEK293 cells stably expressing TGR5 (HEK293-TGR5) were established by stably transfecting HEK-293 cells with an expression vector (pcDNA 3.1, Invetrogen) inserted with human TGR5 cDNA using Fugene6 (Roche, Indianapolis, Ind.) according to conventional methods. Cells were grown in DMEM (invitrogen, Carlsbad, Calif.) supplemented with 10% FBS, 1% penicillin/streptomycin under geneticin selection. The presence of TGR5 transcripts in these cells was confirmed using branched DNA (bDNA, Genospectra, Inc., Fremont Calif.) following the manufacturer's protocol and using specific probes for human TGR5. cAMP production assay was performed in high throughput 1536 well format using LANCE cAMP detection kit (Perkin Elmer Inc., Boston, Mass.) according to the manufacturer's protocol. Briefly, HEK293-TGR5 cells were harvested using non-enzymatic cell dissociation buffer (Invitrogen, Carlsbad, Calif.) and suspended in DMEM supplemented with 0.1% FBS at a density of 800,000 cells/ml. Alexa antibody was added to the cell suspension, and 4 ul of the mixture was dispensed in white opaque tissue culture treated Greiner 1536 well plates (USA Scientific, Inc., Ocala, Fla.). […] TR-FRET signal was detected using the Viewlux (Perkin Elmer Inc., Boston Mass.). EC50 values were determined using Graph Pad Prizm analysis (GraphPad Software, Inc). […]

Sequences of proteins named here, by UniProt entry; tags and fusion partners are left off.
UniProt Q8TDU6, whole entry: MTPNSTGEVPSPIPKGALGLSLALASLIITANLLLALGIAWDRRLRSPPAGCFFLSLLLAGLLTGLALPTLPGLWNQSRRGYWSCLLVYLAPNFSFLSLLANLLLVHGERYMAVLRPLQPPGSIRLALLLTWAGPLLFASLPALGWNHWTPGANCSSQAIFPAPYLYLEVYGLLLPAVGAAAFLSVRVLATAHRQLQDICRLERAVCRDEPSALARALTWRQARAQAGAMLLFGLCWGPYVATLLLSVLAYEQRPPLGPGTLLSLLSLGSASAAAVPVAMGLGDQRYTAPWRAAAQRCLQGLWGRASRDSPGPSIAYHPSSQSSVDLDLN

`COc1cncc(-c2nc3cccnc3c(=O)n2NCc2ccc(Cl)cc2)c1` gave an EC50 of under 10 µM.

— patent publication US20090105124A1, “HETEROCYCLIC MODULATORS OF TGR5” (Kalypsys, Inc., priority 2007, published 2009)
